# Permeability data for macrocyclic peptides

Collected by the curators of CycPeptMPDB (Li et al. 2023) from Kelly et al. 2021, doi:10.1021/jacs.0c06115.

PAMPA is the parallel artificial membrane permeability assay, which has no cells and reads passive diffusion.
Values are log10 P with P in cm/s, so -5 is more permeable than -7.

SMILES,PAMPA (log10 cm/s)
CC(=O)N1CCC[C@H]1C(=O)N[C@@H]1C(=O)N[C@H](CC(C)C)C(=O)N[C@@H](CC(C)C)C(=O)N(C)[C@H](CC(C)C)C(=O)N[C@H](CC(C)C)C(=O)N[C@H](C)C(=O)N[C@@H](CC(C)C)C(=O)N2CCC[C@@H]2C(=O)O[C@@H]1C,-5.26
CC(=O)N1CCC[C@@H]1C(=O)N(C)[C@H](CC(C)C)C(=O)N[C@@H]1C(=O)N(C)[C@@H](CC(C)C)C(=O)N(C)[C@H](CC(C)C)C(=O)N(C)[C@H](CC(C)C)C(=O)N(C)[C@H](C)C(=O)N[C@@H](CC(C)C)C(=O)N2CCC[C@H]2C(=O)O[C@@H]1C,-6.45
CC(=O)N1CCC[C@H]1C(=O)N(C)[C@@H](CC(C)C)C(=O)N[C@@H]1C(=O)N[C@@H](CC(C)C)C(=O)N(C)[C@H](CC(C)C)C(=O)N(C)[C@@H](CC(C)C)C(=O)N(C)[C@H](C)C(=O)N[C@@H](CC(C)C)C(=O)N2CCC[C@@H]2C(=O)O[C@@H]1C,-5.72
CC(=O)N1CCC[C@H]1C(=O)N(C)[C@@H](CC(C)C)C(=O)N[C@@H]1C(=O)N[C@@H](CC(C)C)C(=O)N[C@@H](CC(C)C)C(=O)N[C@@H](CC(C)C)C(=O)N[C@@H](C)C(=O)N[C@@H](CC(C)C)C(=O)N2CCC[C@H]2C(=O)O[C@@H]1C,-6.43
CC(=O)N1CCC[C@@H]1C(=O)N(C)[C@@H](CC(C)C)C(=O)N[C@@H]1C(=O)N[C@@H](CC(C)C)C(=O)N(C)[C@@H](CC(C)C)C(=O)N[C@@H](CC(C)C)C(=O)N(C)[C@H](C)C(=O)N[C@H](CC(C)C)C(=O)N2CCC[C@@H]2C(=O)O[C@@H]1C,-5.16
CC(=O)N1CCC[C@H]1C(=O)N[C@@H]1C(=O)N(C)[C@H](CC(C)C)C(=O)N[C@H](CC(C)C)C(=O)N[C@H](CC(C)C)C(=O)N[C@@H](CC(C)C)C(=O)N(C)[C@H](C)C(=O)N[C@@H](CC(C)C)C(=O)N2CCC[C@@H]2C(=O)O[C@@H]1C,-6.50
CC(=O)N1CCC[C@H]1C(=O)N(C)[C@H](CC(C)C)C(=O)N[C@@H]1C(=O)N[C@H](CC(C)C)C(=O)N(C)[C@@H](CC(C)C)C(=O)N(C)[C@H](CC(C)C)C(=O)N(C)[C@@H](C)C(=O)N[C@@H](CC(C)C)C(=O)N2CCC[C@H]2C(=O)O[C@@H]1C,-5.29
CC(=O)N1CCC[C@@H]1C(=O)N(C)[C@@H](CC(C)C)C(=O)N[C@@H]1C(=O)N(C)[C@@H](CC(C)C)C(=O)N(C)[C@@H](CC(C)C)C(=O)N(C)[C@H](CC(C)C)C(=O)N(C)[C@H](C)C(=O)N[C@@H](CC(C)C)C(=O)N2CCC[C@@H]2C(=O)O[C@@H]1C,-5.05
CC(=O)N1CCC[C@@H]1C(=O)N(C)[C@@H](CC(C)C)C(=O)N[C@@H]1C(=O)N(C)[C@@H](CC(C)C)C(=O)N[C@H](CC(C)C)C(=O)N(C)[C@@H](CC(C)C)C(=O)N(C)[C@@H](C)C(=O)N[C@H](CC(C)C)C(=O)N2CCC[C@H]2C(=O)O[C@@H]1C,-5.71
CC(=O)N1CCC[C@@H]1C(=O)N(C)[C@H](CC(C)C)C(=O)N[C@@H]1C(=O)N[C@H](CC(C)C)C(=O)N[C@H](CC(C)C)C(=O)N(C)[C@@H](CC(C)C)C(=O)N(C)[C@@H](C)C(=O)N[C@H](CC(C)C)C(=O)N2CCC[C@H]2C(=O)O[C@@H]1C,-5.87
CC(=O)N1CCC[C@@H]1C(=O)N(C)[C@H](CC(C)C)C(=O)N[C@@H]1C(=O)N[C@H](CC(C)C)C(=O)N(C)[C@H](CC(C)C)C(=O)N(C)[C@@H](CC(C)C)C(=O)N(C)[C@@H](C)C(=O)N[C@H](CC(C)C)C(=O)N2CCC[C@H]2C(=O)O[C@@H]1C,-5.33
CC(=O)N1CCC[C@@H]1C(=O)N(C)[C@H](CC(C)C)C(=O)N[C@@H]1C(=O)N(C)[C@H](CC(C)C)C(=O)N(C)[C@@H](CC(C)C)C(=O)N[C@@H](CC(C)C)C(=O)N[C@@H](C)C(=O)N[C@H](CC(C)C)C(=O)N2CCC[C@@H]2C(=O)O[C@@H]1C,-5.93
CC(=O)N1CCC[C@@H]1C(=O)N(C)[C@@H](CC(C)C)C(=O)N[C@@H]1C(=O)N(C)[C@H](CC(C)C)C(=O)N(C)[C@H](CC(C)C)C(=O)N[C@H](CC(C)C)C(=O)N(C)[C@H](C)C(=O)N[C@@H](CC(C)C)C(=O)N2CCC[C@H]2C(=O)O[C@@H]1C,-5.29
CC(=O)N1CCC[C@@H]1C(=O)N(C)[C@@H](CC(C)C)C(=O)N[C@@H]1C(=O)N(C)[C@@H](CC(C)C)C(=O)N(C)[C@H](CC(C)C)C(=O)N(C)[C@@H](CC(C)C)C(=O)N(C)[C@H](C)C(=O)N[C@H](CC(C)C)C(=O)N2CCC[C@H]2C(=O)O[C@@H]1C,-5.46
CC(=O)N1CCC[C@H]1C(=O)N(C)[C@H](CC(C)C)C(=O)N[C@@H]1C(=O)N[C@H](CC(C)C)C(=O)N(C)[C@@H](CC(C)C)C(=O)N(C)[C@H](CC(C)C)C(=O)N(C)[C@H](C)C(=O)N[C@@H](CC(C)C)C(=O)N2CCC[C@@H]2C(=O)O[C@@H]1C,-5.23
CC(=O)N1CCC[C@H]1C(=O)N(C)[C@H](CC(C)C)C(=O)N[C@@H]1C(=O)N(C)[C@H](CC(C)C)C(=O)N[C@H](CC(C)C)C(=O)N(C)[C@H](CC(C)C)C(=O)N(C)[C@H](C)C(=O)N[C@@H](CC(C)C)C(=O)N2CCC[C@H]2C(=O)O[C@@H]1C,-5.10
CC(=O)N1CCC[C@@H]1C(=O)N(C)[C@H](CC(C)C)C(=O)N[C@@H]1C(=O)N[C@H](CC(C)C)C(=O)N[C@H](CC(C)C)C(=O)N(C)[C@@H](CC(C)C)C(=O)N(C)[C@H](C)C(=O)N[C@H](CC(C)C)C(=O)N2CCC[C@H]2C(=O)O[C@@H]1C,-5.95
CC(=O)N1CCC[C@@H]1C(=O)N(C)[C@@H](CC(C)C)C(=O)N[C@@H]1C(=O)N(C)[C@@H](CC(C)C)C(=O)N[C@@H](CC(C)C)C(=O)N[C@H](CC(C)C)C(=O)N(C)[C@@H](C)C(=O)N[C@@H](CC(C)C)C(=O)N2CCC[C@H]2C(=O)O[C@@H]1C,-5.41

Again, the 2 entries with the lowest PAMPA:

| SMILES | PAMPA (log10 cm/s) |
|---|---|
| CC(=O)N1CCC[C@H]1C(=O)N[C@@H]1C(=O)N(C)[C@H](CC(C)C)C(=O)N[C@H](CC(C)C)C(=O)N[C@H](CC(C)C)C(=O)N[C@@H](CC(C)C)C(=O)N(C)[C@H](C)C(=O)N[C@@H](CC(C)C)C(=O)N2CCC[C@@H]2C(=O)O[C@@H]1C | -6.50 |
| CC(=O)N1CCC[C@@H]1C(=O)N(C)[C@H](CC(C)C)C(=O)N[C@@H]1C(=O)N(C)[C@@H](CC(C)C)C(=O)N(C)[C@H](CC(C)C)C(=O)N(C)[C@H](CC(C)C)C(=O)N(C)[C@H](C)C(=O)N[C@@H](CC(C)C)C(=O)N2CCC[C@H]2C(=O)O[C@@H]1C | -6.45 |

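Lipid, pH, incubation time, direction and concentration are not recorded in the data file. The list need not hold all peptides of the study. Entries at the database's floor value (log10 P of -10) are not listed.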